Target: cloned human NOP receptors (Homo sapiens, UniProt P41146)
Test: [35S]GTPγS binding assay of receptor-mediated G-protein activation
Format: biochemical

Amino acid sequences for entries named in this document (tags omitted). A change or cut given only in a name is not applied to a line headed by its entry.
UniProt P41146: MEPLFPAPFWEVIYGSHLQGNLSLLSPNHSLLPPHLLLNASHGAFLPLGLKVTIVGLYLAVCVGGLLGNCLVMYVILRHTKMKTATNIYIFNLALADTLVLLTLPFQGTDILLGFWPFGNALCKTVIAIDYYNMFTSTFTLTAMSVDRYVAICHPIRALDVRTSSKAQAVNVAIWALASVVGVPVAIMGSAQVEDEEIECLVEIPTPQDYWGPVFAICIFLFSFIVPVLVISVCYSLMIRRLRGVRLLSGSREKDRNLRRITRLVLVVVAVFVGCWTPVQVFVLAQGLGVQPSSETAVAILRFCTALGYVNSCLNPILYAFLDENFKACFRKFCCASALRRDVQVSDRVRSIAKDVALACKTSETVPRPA

SMILES	Kb [nM]
CC(C)N(C)C(=O)[C@H](Cc1ccccc1F)CN1CCC2(CC1)OCCc1cc(F)sc12 [(R)-10a, (2R)-2-[(2-Fluorophenyl)methyl]-3-(2-fluorospiro[4,5-dihydrothieno[2,3-c]pyran-7,4'-piperidine]-1'-yl)-N-isopropyl-N-methyl-propanamide]	15.8 ± 3.48
CNC(=O)[C@H](Cc1ccccc1Cl)CN1CCC2(CC1)OCCc1cc(F)sc12 [(R)-10b, (2R)-2-[(2-Chlorophenyl)methyl]-3-(2-fluorospiro[4,5-dihydrothieno[2,3-c]pyran-7,4'-piperidine]-1'-yl)-N-methyl-propanamide]	5.79 ± 1.05
CC(C)N(C)C(=O)[C@@H](Cc1ccccc1F)CN1CCC2(CC1)OCCc1cc(F)sc12 [(S)-10a, (2S)-2-[(2-Fluorophenyl)methyl]-3-(2-fluorospiro[4,5-dihydrothieno[2,3-c]pyran-7,4'-piperidine]-1'-yl)-N-isopropyl-N-methyl-propanamide]	0.141 ± 0.032
CNC(=O)[C@@H](Cc1ccccc1Cl)CN1CCC2(CC1)OCCc1cc(F)sc12 [(S)-10b, (2S)-2-[(2-Chlorophenyl)methyl]-3-(2-fluorospiro[4,5-dihydrothieno[2,3-c]pyran-7,4'-piperidine]-1'-yl)-N-methyl-propanamide]	0.099 ± 0.048
